Assay [1] relates to FM3A. In words: in vitro cytotoxicity against mouse mammary tumor in cell culture.
In assay [2] the test system is FM3A. The assay is described as follows: in vitro cytotoxicity against mouse mammary tumor in cell culture. It counts as functional, cell-based. The procedure, abridged: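 Mouse mammary tumor FM3A cells in culture, used as a mammalian cytotoxicity control; EC50 determined.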

Structures are written as SMILES.

By EC50 is commonly meant the midpoint of the concentration-response curve. Higher therefore signals a need for much substance.

`OOC1(OO)CCCCCCCCCCC1` had an EC50 in the assay on FM3A [1] of 44 µM.
As to `C1CCCC2(CC1)OOCCCOO2`, in the assay on FM3A [2], the EC50 turned out to be 32 µM.
Take `C1CCC(C2OOCCCOO2)CC1`: a half-maximal effect with FM3A [2] (EC50) was put at 19 µM.
The same measure, in the same setting: the same measure for `CCCCC1(CCCC)OOCCCOO1`: 56 µM.

(Values after ChEMBL document CHEMBL1134771, “Synthesis and antimalarial activity of novel medium-sized 1,2,4,5-tetraoxacycloalkanes” (J Med Chem, 2001).)
